Measurements: patent US20080317767A1, “Tripartitle Raftophilic Strutures and their Use” (priority 2004, published 2008)

Assay: Liposome raftophile assay (LRA)
Type: physicochemical
Settings: Example 34; compound 0.2-2.0 μM, 1 h at 37° C.
Procedure: The propensity of a compound to partition into the raft domain may be determined in an assay measuring the concentration of the compound in the raft domain and that in the non-raft domain after a given incubation time with the lipid membrane system under study. Apart from the DRM test discussed above, a liposome raftophilicity assay (LRA) may be employed. […] The fractions are separated and the amount of test compound in each is determined For each liposome type a lipophilicity value is determined from the amount of compound taken up by the liposome. […] Yet, the person skilled in the art is readily in a position to carry out a LRA by carrying out the following, summarized protocol. Lipophilicity of a compound is, inter alia, measured by said LRA. […]
The test system comprises three components in which test compounds may be found, the lipid membrane, the aqueous supernatant and in the test tube wall. Following incubation, the liposomes are removed from the system and test compounds are measured in the aqueous and tube wall fraction by fluorimetry or quantitative mass spectrometry. […]
The partition of test compounds into liposomes representing either non-raft or raft membrane is determined. […]
Compounds are detected in the aqueous supernatant and the adherent fraction by fluorimetry or quantitative mass spectrometry. […]

cholesteryl glycolic acid [cholesterol-based raft anchor]
LRA raftophilicity (ratio of partition coefficients raft/non-raft liposomes): approximately 50
